The chains behind the UniProt entries cited, without tags or fusion partners.
UniProt Q15125, whole entry: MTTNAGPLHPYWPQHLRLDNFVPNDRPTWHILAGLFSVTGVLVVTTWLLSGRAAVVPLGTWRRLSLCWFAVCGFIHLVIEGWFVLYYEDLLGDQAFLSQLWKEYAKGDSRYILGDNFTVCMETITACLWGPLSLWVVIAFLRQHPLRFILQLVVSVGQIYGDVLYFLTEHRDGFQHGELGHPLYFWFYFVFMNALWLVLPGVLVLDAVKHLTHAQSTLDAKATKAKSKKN

In patent US20250171463A1 (BIOGEN MA INC., priority 2022, published 2025):

Target: EBP (Homo sapiens, UniProt Q15125)
Assay: EBP Functional Assay (EBP immunoaffinity LC-MS assay)
Conditions: read-out: EBP Functional Assay; EBP enzyme from HEK293T cells; 30 min with inhibitor, then zymosterol-d5, 37° C., 4 h; percent conversion to dehydrolathosterol-d5 by LC-APCI MRM MS
Procedure: The EBP immunoaffinity (IA) LC-MS assay measures the potency of small molecule inhibitors of EBP by quantifying their concentration-dependent changes in the enzyme's substrate and product using liquid chromatography atmospheric pressure chemical ionization multiple reaction monitoring mass spectrometry (LC-APCI MRM MS). HEK293T cells were utilized as the source of EBP enzyme. The enzyme was incubated with the small molecule inhibitors at variable concentrations for 30 min. Deuterated form of EBP substrate, zymosterol-d5 (Avanti Polar Lipids, Cat #700068P-1 mg), was then added and the plate was incubated at 37° C. for 4 h. Finally, the sterol isomers were extracted and injected to LC-APCI MRM MS. MRM transition used for the quantification for both zymosterol and […] (substrate and product of EBP enzymatic reaction, respectively) is 372.3-203.2, CE 30 and DP 80 in positive ion mode. Percent conversion of the zymosterol-d5 to dehydrolathosterol-d5 was used to derive IC50 curves. Tasin-1 (1′-[(4-Methoxyphenyl)sulfonyl]-4-methyl-1,4′-bipiperidine, CAS 792927-06-1) was used as the reference small molecule inhibitor.
Percent conversion versus the compound concentration data were fit to the following 4-parameter logistic model to generate IC50 curves: […]

| Compound | pIC50 |
| --- | --- |
| Cc1nc(C(F)(F)F)ccc1S(=O)(=O)N1CC2(CN([C@@H]3CCOC[C@@H]3F)C2)C1 (relative stereo) | 6.60 to 7.00 |
| Cc1nc(C(F)(F)F)ccc1S(=O)(=O)N1CC2(CN([C@H]3CCOC[C@@H]3F)C2)C1 (relative stereo) | 5.40 to 6.60 |
| Cc1nc(C(F)(F)F)ccc1S(=O)(=O)N1CC2(CN(C3[C@H](C)COC[C@@H]3C)C2)C1 (single isomer, unassigned) | > 7.00 |

Now from value to molecule:

| pIC50 | Compound |
| --- | --- |
| > 7.00 | Cc1nc(C(F)(F)F)ccc1S(=O)(=O)N1CC2(CN(C3[C@@H](C)COC[C@@H]3C)C2)C1 (relative stereo) |
| > 7.00 | Cc1nc(C(F)(F)F)ccc1S(=O)(=O)N1CC2(CN(C3CCOC(C)C3)C2)C1 (single isomer, unassigned) |

pIC50: −log10 of the molar value.
